Tests used:
[1] = molecular target: Delta-type opioid receptor (Homo sapiens, UniProt P41143); test: Displacement of [125I]deltorphin 2 from human cloned delta opioid receptor
[2] = molecular target: T1, Mu-type opioid receptor (Homo sapiens, UniProt P35372); test: Displacement of [125I]FK33824 from human cloned mu opioid receptor
[3] = molecular target: Kappa-type opioid receptor (Homo sapiens, UniProt P41145); test: Displacement of [125I]U69593 from human cloned kappa opioid receptor
[4] = molecular target: T1, Mu-type opioid receptor

The chains behind the UniProt entries cited, without tags or fusion partners.
UniProt P41143, whole entry: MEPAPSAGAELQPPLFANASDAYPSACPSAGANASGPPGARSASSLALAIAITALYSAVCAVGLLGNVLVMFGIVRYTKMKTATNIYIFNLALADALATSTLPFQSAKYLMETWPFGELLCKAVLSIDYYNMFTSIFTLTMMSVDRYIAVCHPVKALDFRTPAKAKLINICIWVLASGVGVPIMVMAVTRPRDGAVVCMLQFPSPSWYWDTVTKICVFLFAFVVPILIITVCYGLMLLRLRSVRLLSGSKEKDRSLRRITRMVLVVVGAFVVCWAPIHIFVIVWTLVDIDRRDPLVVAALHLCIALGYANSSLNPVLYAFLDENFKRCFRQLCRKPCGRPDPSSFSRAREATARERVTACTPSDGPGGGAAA
UniProt P35372, whole entry: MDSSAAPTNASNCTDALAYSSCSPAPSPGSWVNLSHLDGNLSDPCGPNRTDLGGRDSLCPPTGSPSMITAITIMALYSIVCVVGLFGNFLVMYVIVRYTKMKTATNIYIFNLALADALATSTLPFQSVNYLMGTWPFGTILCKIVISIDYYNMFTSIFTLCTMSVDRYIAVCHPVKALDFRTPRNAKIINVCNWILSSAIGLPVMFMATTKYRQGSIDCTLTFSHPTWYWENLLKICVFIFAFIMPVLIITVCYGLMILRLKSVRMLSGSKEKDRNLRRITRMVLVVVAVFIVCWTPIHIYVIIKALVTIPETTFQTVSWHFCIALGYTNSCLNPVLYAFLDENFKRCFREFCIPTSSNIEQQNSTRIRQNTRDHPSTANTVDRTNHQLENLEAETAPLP
UniProt P41145, whole entry: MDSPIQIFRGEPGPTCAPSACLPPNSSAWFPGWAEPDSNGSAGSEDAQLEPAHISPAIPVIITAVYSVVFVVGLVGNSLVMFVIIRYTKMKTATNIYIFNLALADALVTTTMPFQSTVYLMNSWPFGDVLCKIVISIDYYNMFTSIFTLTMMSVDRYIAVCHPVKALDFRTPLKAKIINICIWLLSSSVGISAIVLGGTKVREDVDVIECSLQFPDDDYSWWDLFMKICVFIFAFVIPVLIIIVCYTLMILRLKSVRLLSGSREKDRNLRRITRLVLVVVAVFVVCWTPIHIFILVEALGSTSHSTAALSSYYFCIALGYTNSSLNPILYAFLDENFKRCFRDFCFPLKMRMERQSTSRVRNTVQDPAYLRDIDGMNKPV

SMILES | IC50 [1] [µM] | IC50 [2] [µM] | IC50 [3] [µM] | EC50 [4] [µM]
COCCN(C(=O)c1ccco1)C1c2ccccc2C=CC1N1CCN(c2ccccc2)CC1 (stereo not drawn) | 3.95 | 0.126 | > 10 | > 90
COCCN(C(=O)c1ccc(Cl)c(Cl)c1)C1c2cc(OC)c(OC)cc2CCC1N(C)C (stereo not drawn) | 3.5 | 0.351 | 6 | > 90
